# Literature values in patent US20240024490A1 (published 2024).
# Amino acid sequences for entries named in this document (tags omitted).
# UniProt P45983, whole entry, species assumed: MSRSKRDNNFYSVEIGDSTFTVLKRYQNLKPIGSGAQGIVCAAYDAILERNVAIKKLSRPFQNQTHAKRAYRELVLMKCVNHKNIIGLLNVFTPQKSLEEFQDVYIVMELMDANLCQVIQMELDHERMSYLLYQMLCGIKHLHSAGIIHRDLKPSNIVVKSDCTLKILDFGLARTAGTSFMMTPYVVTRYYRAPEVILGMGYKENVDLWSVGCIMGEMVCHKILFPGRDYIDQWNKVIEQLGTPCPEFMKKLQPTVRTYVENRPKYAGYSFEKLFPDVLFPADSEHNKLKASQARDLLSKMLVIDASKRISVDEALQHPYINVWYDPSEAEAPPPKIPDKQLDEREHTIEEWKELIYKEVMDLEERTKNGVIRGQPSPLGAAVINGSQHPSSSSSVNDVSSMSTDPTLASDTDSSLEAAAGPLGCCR
# Experiments:
# [1] = test system: screening panel of kinases; conditions: read-out: IC50 for many kinases of a screening panel; cited from earlier work
# Crk-L = conditions: cited from earlier work
# JNK 1 = JNK 1 (Homo sapiens, UniProt P45983); conditions: read-out: IC50 JNK 1; cited from earlier work
compound,measurement,setting,value
Cc1ccc(-n2nc(C(C)(C)C)cc2NC(=O)Nc2ccc(OCCN3CCOCC3)c3ccccc23)cc1 [Doramapimod],IC50,[1],< 100 nM
CC(=O)NC1=NN(c2ccc(Cl)c(Cl)c2)CC1C (stereo not shown) [compound 45],Fold Increase phCRKE Vs Total Crk-L (normalised),Crk-L; 40 min,1x
same,Fold Increase phCRKE Vs Total Crk-L (normalised),Crk-L; 180 min,5x
Cn1cc2cc(Oc3ccc(NC(=O)Nc4cc(C(C)(C)C)nn4-c4ccccc4)cc3)ccc2n1 [compound 1],IC50,JNK 1,880 nM

# Read-outs that look alike come from different tables or passages of the source.
